Where two headings read alike, the source gives them in different places.
Tests used:
OATP1B1 [1] = target: T1, OATP1B1 (Homo sapiens, UniProt Q9Y6L6); assay: Transporter substrate study using HEK293-OATP1B1 cells
T1 sequence (Q9Y6L6 1-691): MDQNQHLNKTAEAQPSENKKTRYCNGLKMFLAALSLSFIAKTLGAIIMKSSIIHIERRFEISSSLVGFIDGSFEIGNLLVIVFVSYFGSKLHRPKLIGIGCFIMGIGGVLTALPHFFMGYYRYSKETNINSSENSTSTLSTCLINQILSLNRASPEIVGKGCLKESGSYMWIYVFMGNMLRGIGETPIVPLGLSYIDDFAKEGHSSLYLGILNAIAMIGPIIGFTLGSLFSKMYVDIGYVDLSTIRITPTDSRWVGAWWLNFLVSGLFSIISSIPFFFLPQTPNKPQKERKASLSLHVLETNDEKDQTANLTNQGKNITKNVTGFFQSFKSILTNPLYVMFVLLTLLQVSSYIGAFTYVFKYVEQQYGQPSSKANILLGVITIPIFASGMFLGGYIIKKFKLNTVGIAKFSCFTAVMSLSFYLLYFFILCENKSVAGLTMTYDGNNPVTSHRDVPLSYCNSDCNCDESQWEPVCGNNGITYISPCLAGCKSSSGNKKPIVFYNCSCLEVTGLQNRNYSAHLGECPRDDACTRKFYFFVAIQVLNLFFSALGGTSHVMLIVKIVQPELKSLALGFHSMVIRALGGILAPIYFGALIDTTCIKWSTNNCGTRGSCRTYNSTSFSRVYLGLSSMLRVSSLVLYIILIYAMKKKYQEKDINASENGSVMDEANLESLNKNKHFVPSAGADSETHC

OATP1B1 [2] = target: T1, OATP1B1; details: 10 μM MPAG

SMILES	uptake ratio (UR) of probe substrate mediated by OATP1B1 (OATP1B1 [1]; without inhibitor, vs MOCK cells)	Relative net uptake rate of MPAG (% of NC), Mean (OATP1B1 [2]; 0.1 μM)	Relative net uptake rate of MPAG (% of NC), Mean (OATP1B1 [2]; 1 μM)	Relative net uptake rate of MPAG (% of NC), Mean (OATP1B1 [2]; 3 μM)	Relative net uptake rate of MPAG (% of NC), Mean (OATP1B1 [2]; 10 μM)	Relative net uptake rate of MPAG (% of NC), Mean (OATP1B1 [2]; 30 μM)	Relative net uptake rate of MPAG (% of NC), Mean (OATP1B1 [2]; 100 μM)	inhibition rate of OATP1B1-mediated E217βG uptake (OATP1B1 [1]; rifampicin treatment, probe substrate E217βG)
C[C@]12CC[C@@H]3c4ccc(O)cc4CC[C@H]3[C@@H]1CC[C@@H]2O[C@@H]1O[C@H](C(=O)O)[C@@H](O)[C@H](O)[C@H]1O [E217βG, Estradiol-17β-D-glucuronide]	17.9							
CO[C@H]1/C=C/O[C@@]2(C)Oc3c(C)c(O)c4c(O)c(c(/C=N/N5CCN(C)CC5)c(O)c4c3C2=O)NC(=O)/C(C)=C\C=C\[C@H](C)[C@H](O)[C@@H](C)[C@@H](O)[C@@H](C)[C@H](OC(C)=O)[C@@H]1C [rifampicin]		109 % of NC	26.8 % of NC	30.9 % of NC	8.07 % of NC	2.90 % of NC	3.13 % of NC	97.7%

Reference: PMC11381307 (Frontiers in Pharmacology, 2024)
